Data taken from patent publication US10201546B2, “Quinolinyl modulators of RORγt” (Janssen Pharmaceutica NV, priority 2013, dated 2019).

Chains of the proteins cited; added tags and fusions are not shown. A line that says so, or that is headed by a name, gives the form on record, which may keep a tag or linker. Residues count along the entry.
UniProt P51449, 258-518: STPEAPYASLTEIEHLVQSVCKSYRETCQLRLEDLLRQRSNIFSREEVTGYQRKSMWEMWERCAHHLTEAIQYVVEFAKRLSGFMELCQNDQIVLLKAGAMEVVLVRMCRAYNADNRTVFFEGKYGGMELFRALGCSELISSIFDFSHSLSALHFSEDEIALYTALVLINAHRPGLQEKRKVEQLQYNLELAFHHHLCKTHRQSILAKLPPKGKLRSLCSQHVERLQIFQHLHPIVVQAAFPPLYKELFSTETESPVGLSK
UniProt P51449, other isoform, or with tags, fused parts or gaps: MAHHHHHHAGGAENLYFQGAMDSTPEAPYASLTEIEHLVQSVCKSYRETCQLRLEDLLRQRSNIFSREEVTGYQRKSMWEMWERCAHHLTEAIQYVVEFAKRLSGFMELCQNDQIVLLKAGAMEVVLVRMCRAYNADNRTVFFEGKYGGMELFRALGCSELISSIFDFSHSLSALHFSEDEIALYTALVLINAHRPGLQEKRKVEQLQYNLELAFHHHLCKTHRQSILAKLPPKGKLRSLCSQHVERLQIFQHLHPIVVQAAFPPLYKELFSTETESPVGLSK

Key:
[1] = system: IL-17 production by CD4+ T cells under conditions which favor Th17 differentiation; assay: Human Th17 assay (IL-17 production by CD4 T cells); format: cell-based
[2] = target: human RORγt LBD fused to the DNA binding domain of the GAL4 protein (Homo sapiens (Human), UniProt P51449); assay: RORγt (LBD) reporter assay in HEK293T cells; format: cell-based
[3] = target: human RORγt ligand binding domain (RORγt LBD) (Homo sapiens (Human), UniProt P51449); assay: RORγt ThermoFluor assay (thermal shift, binding affinity Kd)
[4] = HEK293T cells, read-out: RORγt (LBD) Reporter Assay, IC50
[5] = read-out: ThermoFluor Assay, Kd

| SMILES | pIC50 [1] | pIC50 [2] | also measured |
| --- | --- | --- | --- |
| COc1nc2ccc(C(O)(c3cnnn3C)C3CN(C(C)=O)C3)cc2c(Cl)c1CC(F)(F)F (single isomer, unassigned) [Example 223c, 1-[3-[[4-Chloro-2-methoxy-3-(2,2,2-trifluoroethyl)-6-quinolyl]-hydroxy-(3-methyltriazol-4-yl)methyl]azetidin-1-yl]ethanone] | 6.72 | – | – |
| COc1nc2ccc(C(O)(c3ccccc3)C3CCN(C(C)=O)CC3)cc2c(Cl)c1CN1CCC(C(F)(F)F)CC1 (single isomer, unassigned) [Example 116b, 1-(4-((4-Chloro-2-methoxy-3-((4-(trifluoromethyl)piperidin-1-yl)methyl)quinolin-6-yl)(hydroxy)(phenyl)methyl)piperidin-1-yl)ethanone] | 7.52 | – | – |
| COc1nc2ccc(C(O)(c3ccc(C)nc3C)c3cnnn3C)cc2c(Cl)c1OC(C)C (single isomer, unassigned) [Example 81c, [4-Chloro-2-methoxy-3-(1-methylethoxy)quinolin-6-yl](2,6-dimethylpyridin-3-yl)(1-methyl-1H-1,2,3-triazol-5-yl)methanol] | 8.00 | – | – |
| COc1nc2ccc(C(O)(c3sc(C)nc3C)c3cnnn3C)cc2c(Cl)c1OC(C)C (single isomer, unassigned) [Example 85c, [4-Chloro-2-methoxy-3-(1-methylethoxy)quinolin-6-yl](2,4-dimethyl-1,3-thiazol-5-yl)(1-methyl-1H-1,2,3-triazol-5-yl)methanol] | 8.80 | – | – |
| COc1nc2ccc(C(O)(c3cnc(C)n3C)c3cnc(C)n3C)cc2c(Cl)c1CN1CC(C(F)(F)F)C1 [Example 118, (4-Chloro-2-methoxy-3-((3-(trifluoromethyl)azetidin-1-yl)methyl)quinolin-6-yl)bis(1,2-dimethyl-1H-imidazol-5-yl)methanol] | 6.66 | – | – |
| COc1nc2ccc(C(O)(c3cnc(C)n3C)c3cnc(C)n3C)cc2c(Cl)c1CNC1CCCC(C(F)(F)F)C1 (stereo not drawn) [Example 201, (4-Chloro-2-methoxy-3-(((3-(trifluoromethyl)cyclohexyl)amino)methyl)quinolin-6-yl)bis(1,2-dimethyl-1H-imidazol-5-yl)methanol] | 6.57 | – | – |
| COc1nc2ccc(C(O)(c3ccc(C)nc3C)c3cnnn3C)cc2c(Cl)c1C (single isomer, unassigned) [Example 12c, (4-Chloro-2-methoxy-3-methylquinolin-6-yl)(2,6-dimethylpyridin-3-yl)(1-methyl-1H-1,2,3-triazol-5-yl)methanol] | – | 6.48 | pKd ([3]; ThermoFluor Assay, Kd): 7.20 |
| COc1nc2ccc(C(O)(c3cnc(C)n3C)c3cnc(C)n3C)cc2c(Cl)c1OCC1CC1(F)F (single isomer, unassigned) [Example 56b, {4-Chloro-3-[(2,2-difluorocyclopropyl)methoxy]-2-methoxyquinolin-6-yl}[bis(1,2-dimethyl-1H-imidazol-5-yl)]methanol] | 7.92 | – | – |
| COc1nc2ccc(C(O)(c3ccc(C(F)(F)F)nc3)c3cncn3C)cc2c(Cl)c1CN1CCC(C(F)(F)F)CC1 (single isomer, unassigned) [Example 112c, (4-Chloro-2-methoxy-3-((4-(trifluoromethyl)piperidin-1-yl)methyl)quinolin-6-yl)(1-methyl-1H-imidazol-5-yl)(6-(trifluoromethyl)pyridin-3-yl)methanol] | – | 7.21 | pIC50 ([1]; CD4+ T): 7.77 |
| COc1nc2ccc(C(O)(c3ccc(C)nc3C)c3cnnn3C)cc2c(Cl)c1CC1CC1 (stereo not drawn) [Example 14a, (4-Chloro-3-(cyclopropylmethyl)-2-methoxyquinolin-6-yl)(2,6-dimethylpyridin-3-yl)(1-methyl-1H-1,2,3-triazol-5-yl)methanol] | – | – | pIC50 [2, 4]: 7.64; pKd [3, 5]: 8.60 |
| CCc1nc2ccc(C(O)(c3ccnc(C(F)(F)F)c3)c3cncn3C)cc2c(Cl)c1CC(F)(F)F (single isomer, unassigned) [Example 227b, [4-Chloro-2-ethyl-3-(2,2,2-trifluoroethyl)-6-quinolyl]-(3-methylimidazol-4-yl)-[2-(trifluoromethyl)-4-pyridyl]methanol] | 7.28 | – | – |
| COc1nc2ccc(C(O)(c3ccc(C)nc3C)c3cnnn3C)cc2c(Cl)c1CN1CCC(n2cccn2)CC1 (single isomer, unassigned) [Example 105c, (3-((4-(1H-Pyrazol-1-yl)piperidin-1-yl)methyl)-4-chloro-2-methoxyquinolin-6-yl)(2,6-dimethylpyridin-3-yl)(1-methyl-1H-1,2,3-triazol-5-yl)methanol] | – | 6.92 | pKd ([3]; ThermoFluor Assay, Kd): 7.33 |
| COc1nc2ccc(C(O)(c3ccc(C)nc3C)c3cnnn3C)cc2c(Cl)c1OC1CCOCC1 (single isomer, unassigned) [Example 69c, [4-Chloro-2-methoxy-3-(tetrahydro-2H-pyran-4-yloxy)quinolin-6-yl](2,6-dimethylpyridin-3-yl)(1-methyl-1H-1,2,3-triazol-5-yl)methanol] | – | 6.72 | pKd ([3]; ThermoFluor Assay, Kd): 7.85 |
| COc1nc2ccc(C(O)(c3ccc(C)nc3C)c3cnnn3C)cc2c(Cl)c1CC1CC1 (single isomer, unassigned) [Example 14c, (4-Chloro-3-(cyclopropylmethyl)-2-methoxyquinolin-6-yl)(2,6-dimethylpyridin-3-yl)(1-methyl-1H-1,2,3-triazol-5-yl)methanol] | – | 7.52 | pKd ([3]; ThermoFluor Assay, Kd): 8.89 |
| COc1nc2ccc(C(O)(c3ccc(C)nc3C)c3cnnn3C)cc2c(Cl)c1CC(F)(F)F (single isomer, unassigned) [Example 143c, [4-Chloro-2-methoxy-3-(2,2,2-trifluoroethyl)quinolin-6-yl](2,6-dimethylpyridin-3-yl)(1-methyl-1H-1,2,3-triazol-5-yl)methanol] | – | 7.35 | pKd ([3]; ThermoFluor ® Assay, Kd): 8.54 |
| COc1nc2ccc(C(O)(c3ccc(C)nc3C)c3cnnn3C)cc2c(Cl)c1OC1CCOCC1 (stereo not drawn) [Example 69a, [4-Chloro-2-methoxy-3-(tetrahydro-2H-pyran-4-yloxy)quinolin-6-yl](2,6-dimethylpyridin-3-yl)(1-methyl-1H-1,2,3-triazol-5-yl)methanol] | – | – | pIC50 [2, 4]: ~5.22; pKd [3, 5]: 7.24 |

pIC50, pKd: −log10 of the molar value. Read-outs that look alike come from different tables or passages of the source.
